Assay results from US4681754A, “Counteracting cyclosporin organ toxicity” (Sandoz Ltd., priority 1984, dated 1987).

Test system: SH-rat
[1] = SH-rat blood serum, group 1 vs control group 3
[2] = SH-rat, 28 days, group 1 vs control group 3, group 2 vs group 1
[3] = SH-rat, measured 3-4 hours after Cyclosporine, group 1 vs control group 3, group 2 vs group 1

Q: With Cyclosporine as the substance, how does the BUN [1] read?
A: Its BUN is “increase”.

Q: And the creatinine [1]?
A: Its creatinine is “without significant change”.

Q: What about the “Na+ and K+ quotient” value (SH-rat urine, group 1 vs control group 3) of the same substance?
A: The value was “increase”.

Q: What about the “PRA (Plasma Renin Activity)” value (SH-rat, 3rd week blood sample, group 1 vs control group 3, group 2 vs group 1) of the same substance?
A: Its value is “significant increase”.

Q: What about the body weight [2] of the same substance?
A: Its body weight is “reduction of body weight”.

Q: What about the water consumption [2] of the same substance?
A: The water consumption was “slight initial increase in water consumption followed by subsequent reduction during the course of the trial”.

Q: What about the blood pressure [3] of the same substance?
A: Its blood pressure is “significant increase”.

Q: What about the heart frequency [3] of the same substance?
A: Its heart frequency is “significant increase”.

Q: And the “rats surviving to the end of the trial” value (male SH-rats, 28 days, Cyclosporine 20 mg/kg/day p.o., 6 animals per group)?
A: Its value is 1 out of 6.
